Where two headings read alike, the source gives them in different places. One block for each substance: values may come before it.
How the values were obtained:
[1] = 1D ^1H spectrum and ^1H-^13C HSQC the same even after 6 months in solution
[2] = PET, aged rats (retired breeders); cited from earlier work
[3] = 26 month old rats, monitored out to 177 hr

Substance: Zn-DOTA-alendronate [reference compound]
- stability of the complex in solution [1]: stable

Substance: Zr-DOTA-alendronate
- uptake in older rats bearing lesions (older rats (26 mos) with proven vascular calcification): specific uptake
- clearance from young rats (young rats (3 mos) bearing no sites of calcium vascularization): rapidly cleared
- stability of the complex in solution [1]: stable

Substance: ^64Cu-DOTA-alendronate
- uptake in the vascular system [2]: no uptake

- heart well visualized [3]: ≤ 4 h
- retention in the aorta [3]: up to 2 hrs
- uptake in the aorta, 26 month old vs 3 month old rat (1 hr time point): 2.4 times
- Regions of interest: Aorta (PET, 0 hrs, 3 mos Rat): 1.64
- Regions of interest: Heart (PET, 0 hrs, 3 mos Rat): 2.86
- Regions of interest: Kidneys (PET, 0 hrs, 3 mos Rat): 5.90
- Regions of interest: Vena cava (PET, 0 hrs, 3 mos Rat): 3.29
- Regions of interest: Aorta (PET, 0 hrs, 26 mos Rat): 3.05
- Regions of interest: Heart (PET, 0 hrs, 26 mos Rat): 4.49
- Regions of interest: Kidneys (PET, 0 hrs, 26 mos Rat): 6.39
- Regions of interest: Vena cava (PET, 0 hrs, 26 mos Rat): 4.21
- Regions of interest: Aorta (PET, 1 hr, 3 mos Rat): 0.83
- Regions of interest: Heart (PET, 1 hr, 3 mos Rat): 1.32
- Regions of interest: Kidneys (PET, 1 hr, 3 mos Rat): 0.96
- Regions of interest: Vena cava (PET, 1 hr, 3 mos Rat): 1.23
- Regions of interest: Aorta (PET, 1 hr, 26 mos Rat): 1.98
- Regions of interest: Heart (PET, 1 hr, 26 mos Rat): 2.74
- Regions of interest: Kidneys (PET, 1 hr, 26 mos Rat): 1.62
- Regions of interest: Vena cava (PET, 1 hr, 26 mos Rat): 2.50
- washout from heart, venous flow and kidneys (PET, one hour time point, 3 month old and 26 month old rats): rapid washout
Substance: ^89Zr-DOTA-alendronate

- clearance via the kidneys (rat, in vivo): rapid clearance
Substance: ^89Zr-oxalate [reference compound]

Source: US20230001027A1, “METAL CHELATING AGENTS AND METHODS OF USING THE SAME” (priority 2019, published 2023)
